Here are results for 36 molecules from PubChem BioAssay AID651635 (National Center for Advancing Translational Sciences (NCATS), 2012).

“And” between values parts separate entries of the source, which are not always exact repeats. Equal values may be shown once. The list shows a part of the results, in another mix than the full data. Some tests of the compounds listed are not included; inactive here does not mean inactive elsewhere. Inconclusive results are not listed. The source made the active and inactive calls. Calls come from the whole dose curve; as a rule, active = well fitted cell-killing curve with a large enough effect; inconclusive = small, poorly fitted or top-dose-only effect, or effect the other way; inactive = no such curve, though single readings can be large or run the other way.

The experiment is described as follows: Viability Counterscreen for Primary qHTS for Inhibitors of ATXN expression. Note: nearly all actives have a fitted effect of over 40% in size. The following applies: S2 cells (HEK-293 line with an ATXN2-luciferase reporter) viability, CellTiter-Fluor protease fluorescence, 24 h; at 56.7 µM (top of the series). A general note: A counterscreen serves to expose hits that act by an unwanted route or on another target.
For `CN(C)C1CCCC1OC(=O)C(O)(c1ccccc1)c1ccccc1` (stereo unspecified), the activity change, negative = cytotoxicity was inactive: -31.6%.
As for `CN(C)c1ccc(C(=O)NCC2(N(C)C)CCCCC2)cc1`, the activity change, negative = cytotoxicity was inactive: -14.7%.
As to `CN(C)C1(CNC(=O)c2ccccc2[N+](=O)[O-])CCCCC1`, the activity change, negative = cytotoxicity is inactive: 7.46%.
For the molecule `Cc1ccccc1C(=O)NCC1(N2CCCCC2)CCCCC1`, the activity change, negative = cytotoxicity is inactive: -37.6%.
Under `CCCCOc1ccccc1C(=O)NCC1(N(C)C)CCCCC1` stands inactive: -20.3%; under `O=C(NCC1(N2CCCCC2)CCCCC1)c1cc(F)c(F)cc1Cl`, inactive: 30.7%; under `C=CCN1CCN(CCOC(=O)C(O)(c2ccccc2)c2ccccc2)CC1`, inactive: -7.75%.
Turning to `CCOc1cccc(C(=O)NCC2(N(C)C)CCCCC2)c1`, the activity change, negative = cytotoxicity was inactive: -12%.
`COc1ccc(C(=O)NCC2(N(C)C)CCCCC2)cc1`: the activity change, negative = cytotoxicity is inactive: -17.3%.
As to `O=C(NCC1(N2CCCCC2)CCCCC1)c1cccc(Br)c1`, the activity change, negative = cytotoxicity is inactive: -34.2%.
Turning to `Cc1cc(C(=O)NCC2(N3CCCCC3)CCCCC2)ccc1[N+](=O)[O-]`, the activity change, negative = cytotoxicity was inactive: -16.8%.
Under `CCN1CCCC(OC(=O)C2(O)c3ccccc3C=Cc3ccccc32)C1` (stereo unspecified) stands inactive: -11.3%; under `O=C(NCC1(N2CCCCC2)CCCCC1)c1cc([N+](=O)[O-])ccc1Cl`, inactive: -17.2%; under `CN1[C@@H]2CC[C@H]1CC(OC(=O)C(O)(c1ccccc1)c1ccccc1)C2` (stereo partly specified), inactive: -7.72%.
Consider `COc1cc(SC)ccc1C(=O)NCC1(N(C)C)CCCCC1`, for which the activity change, negative = cytotoxicity is inactive: -8.41%.
With `CCN(CC)CC(C)C(C)OC(=O)C(O)(c1ccccc1)c1ccccc1` (stereo unspecified), the activity change, negative = cytotoxicity is inactive: -16.5%.
As to `CN(C)C1(CNC(=O)c2cccc(Cl)c2)CCCCC1`, the activity change, negative = cytotoxicity is inactive: -18.3%.
`CC(C)N1C(=O)CC2(CCN(CCOC(=O)C(O)(c3ccccc3)c3ccccc3)CC2)C1=O`: the activity change, negative = cytotoxicity was inactive: -18.8%.
Consider `Cc1ccc(C(=O)NCC2(N3CCCCC3)CCCCC2)cc1`, for which the activity change, negative = cytotoxicity was inactive: -20.5%.
As for `CN(C)C1(CNC(=O)c2ccccc2F)CCCCC1`, the activity change, negative = cytotoxicity was inactive: -2.42%.
Regarding `COc1cccc(C(=O)NCC2(N3CCOCC3)CCCCC2)c1`, the activity change, negative = cytotoxicity is inactive: -18.5%.
On to `O=C(OC1CN2CCC1CC2)C(CO)(c1ccccc1)c1ccccc1` (stereo unspecified), for which the activity change, negative = cytotoxicity is inactive: -11.7%.
`CC(C)COc1ccc(C(=O)NCC2(N(C)C)CCCCC2)cc1`: the activity change, negative = cytotoxicity was inactive: -33.9%.
With `C=C(C)C#CC(O)(C(=O)OC1CCN(C)CC1)c1ccccc1` (stereo unspecified), the activity change, negative = cytotoxicity is inactive: -28.8%.
On to `COc1ccc(Br)c(C(=O)NCC2(N3CCCCC3)CCCCC2)c1`, for which the activity change, negative = cytotoxicity is inactive: -24.9%.
Turning to `COc1cc(C(=O)NCC2(N(C)C)CCCCC2)cc(OC)c1OC`, the activity change, negative = cytotoxicity is inactive: -29.6%.
Regarding `Cc1cccc(C(=O)NCC2(N(C)C)CCCCC2)c1`, the activity change, negative = cytotoxicity is inactive: -17.4%.
`O=C(OCCN1CCCC1)C(O)(c1ccccc1)c1ccccc1`: the activity change, negative = cytotoxicity is inactive: -39.5%.
As to `CC(C)Oc1ccc(C(=O)NCC2(N(C)C)CCCCC2)cc1`, the activity change, negative = cytotoxicity was inactive: -1.75% and inactive: -20.6%.
Turning to `CN(C)c1cccc(C(=O)NCC2(N(C)C)CCCCC2)c1`, the activity change, negative = cytotoxicity is inactive: -27.6%.
For `CN(C)C1(CNC(=O)c2ccc(Br)cc2)CCCCC1`, the activity change, negative = cytotoxicity is inactive: -0.772%.
The figure for `COc1cc(C(=O)NCC2(N(C)C)CCCCC2)c([N+](=O)[O-])cc1OC` is inactive: -13.8%; for `COc1ccc(Cl)cc1C(=O)NCC1(N(C)C)CCCCC1` it is inactive: 11.7%.
As to `COc1cccc(C(=O)NCC2(N3CCCCC3)CCCCC2)c1`, the activity change, negative = cytotoxicity is inactive: -17.2%.
For the molecule `COc1ccc(C(=O)NCC2(N(C)C)CCCCC2)cc1Cl`, the activity change, negative = cytotoxicity is inactive: -27.7%.
Turning to `O=C(NCC1(N2CCCCC2)CCCCC1)c1cccc(Cl)c1`, the activity change, negative = cytotoxicity was inactive: -15.6%.
